Test results reported in US20110251085A1, “IN VITRO METHOD TO DETERMINE WHETHER A DRUG CANDIDATE ACTIVE AGAINST A TARGET PROTEIN IS ACTIVE AGAINST A VARIANT OF SAID PROTEIN” (VIVALIS, priority 2008, published 2011).

Test system: NS5BΔ21 P495L mutant
Test: 3D-Screen-NS5B mutant profiling, Hela cells, P495L
Assay type: cell-based, HCV genotype 1b
Conditions: n=2
Experimental: Percentages of reporter's inhibition were represented for cells incubated with a specific NS5B inhibitors at increasing concentrations for 24 hours.
Transfections were performed for 2 hours in 100 mm dishes in 2 to 4 million cells with 5 to 20 ug of total DNA complexed to jetPEI (PolyPLus transfection, Illkirch, France) with a N/P ratio of 8 The optimal ratio between the plasmids encoding for the luciferase reporter, the target and the selected 3Dsensor was: 3 ug/1 ug/0.5 ug. Cells were dissociated and 25000 cells per well were seeded in 96 well culture treated plates (BD Biosciences, Erembodegem, Belgium).
Cell culture supernatant was discarded and 100 ul of Lysis buffer were added to each well. Following […] of vigorous shaking, the lysate was transferred to white opaque 96 well-plates and 100 ul of Luciferin buffer were added. Chemi-luminescence measurement was performed immediately using a Microlumat LB96 luminometer (Berthold, Thoiry, France) with 1 or 10 sec integration time.
After incubation for 24 hours with increasing concentrations of cVVS023477 (a compound belonging to the Benzothiadiazin family) or cVVS-023476 (a compound belonging to the Indol N Acetamid family), luciferase expression was measured.

In the case of `CCN(CC)C1CCN(C(=O)Cn2c(-c3ccc(Cl)cc3)c(C3CCCCC3)c3ccc(C(=O)O)cc32)CC1` [cVVS-023476, 1-{[6-Carboxy-2-(4-chlorophenyl)-3-cyclohexyl-1H-indol-1-yl-]acetyl}-N,N-diethylpiperidin-4-aminium Chloride], the “increase of IC50 versus native NS5B” value is reported as “at least 10 fold”.
